Source: ChEMBL document CHEMBL1255205, “Validated predictive QSAR modeling of N-aryl-oxazolidinone-5-carboxamides for anti-HIV protease activity” (Bioorg Med Chem Lett, 2010)

Molecular target: Protease (Human immunodeficiency virus 1, UniProt Q9YQ12)
Assay: Inhibition of HIV1 protease

SMILES: CC(=O)NC(C(=O)N[C@@H](Cc1ccccc1)CC(O)[C@H](Cc1ccccc1)NC(=O)[C@@H]1CN(c2ccccc2)C(=O)O1)C(C)C (stereo partly specified)
- Ki: 131 nM
